Assay results as given in EP4834897A1, “COMPOUNDS WITH TWO AZAHETEROCYCLES SUBSTITUTED ISOINDOLINONE SKELETON AND USES THEREOF” (dated 2026).

The chains behind the UniProt entries cited, without tags or fusion partners.
UniProt P15170, whole entry: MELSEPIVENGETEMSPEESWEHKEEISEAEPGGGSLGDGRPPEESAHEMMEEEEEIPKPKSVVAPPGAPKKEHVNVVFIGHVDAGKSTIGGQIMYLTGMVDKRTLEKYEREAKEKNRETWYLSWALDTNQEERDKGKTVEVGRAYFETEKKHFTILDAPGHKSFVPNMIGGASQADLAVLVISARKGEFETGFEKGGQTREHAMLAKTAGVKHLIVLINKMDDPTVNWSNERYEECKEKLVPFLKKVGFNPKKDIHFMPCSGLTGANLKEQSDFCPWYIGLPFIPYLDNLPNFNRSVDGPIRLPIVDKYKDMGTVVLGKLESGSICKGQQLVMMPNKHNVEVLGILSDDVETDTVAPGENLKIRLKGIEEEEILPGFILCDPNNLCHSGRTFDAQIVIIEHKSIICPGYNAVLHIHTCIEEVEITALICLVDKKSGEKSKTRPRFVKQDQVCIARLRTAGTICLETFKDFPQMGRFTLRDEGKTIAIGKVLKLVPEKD
UniProt Q96SW2, whole entry: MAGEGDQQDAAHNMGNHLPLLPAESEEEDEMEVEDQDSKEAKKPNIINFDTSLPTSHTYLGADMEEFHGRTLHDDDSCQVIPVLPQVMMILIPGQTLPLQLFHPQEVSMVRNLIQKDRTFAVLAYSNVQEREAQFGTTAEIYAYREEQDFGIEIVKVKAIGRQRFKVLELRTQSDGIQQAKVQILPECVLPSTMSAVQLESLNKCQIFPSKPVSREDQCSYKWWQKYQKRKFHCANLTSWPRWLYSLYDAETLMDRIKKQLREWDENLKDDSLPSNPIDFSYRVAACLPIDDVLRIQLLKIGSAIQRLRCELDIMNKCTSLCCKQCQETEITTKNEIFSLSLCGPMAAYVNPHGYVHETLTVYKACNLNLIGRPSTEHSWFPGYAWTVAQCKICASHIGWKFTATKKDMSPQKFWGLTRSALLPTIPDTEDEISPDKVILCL
UniProt P30291, whole entry: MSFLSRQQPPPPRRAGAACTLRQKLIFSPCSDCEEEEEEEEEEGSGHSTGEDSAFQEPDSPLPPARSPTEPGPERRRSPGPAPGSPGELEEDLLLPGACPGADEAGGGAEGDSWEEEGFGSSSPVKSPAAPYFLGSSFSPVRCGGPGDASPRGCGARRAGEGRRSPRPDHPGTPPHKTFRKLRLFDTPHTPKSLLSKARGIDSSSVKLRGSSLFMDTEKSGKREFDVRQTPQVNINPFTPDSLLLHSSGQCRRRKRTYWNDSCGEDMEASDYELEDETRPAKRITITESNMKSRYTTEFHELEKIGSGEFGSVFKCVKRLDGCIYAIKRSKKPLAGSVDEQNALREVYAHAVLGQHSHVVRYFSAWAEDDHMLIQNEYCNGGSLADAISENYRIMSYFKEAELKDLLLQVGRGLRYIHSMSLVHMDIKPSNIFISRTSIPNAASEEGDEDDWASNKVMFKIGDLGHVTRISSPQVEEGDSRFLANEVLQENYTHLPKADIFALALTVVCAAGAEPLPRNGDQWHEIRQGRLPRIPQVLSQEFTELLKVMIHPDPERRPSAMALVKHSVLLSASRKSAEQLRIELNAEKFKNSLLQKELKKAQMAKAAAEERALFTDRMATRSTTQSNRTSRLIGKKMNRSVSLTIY
UniProt Q9UKT9, whole entry: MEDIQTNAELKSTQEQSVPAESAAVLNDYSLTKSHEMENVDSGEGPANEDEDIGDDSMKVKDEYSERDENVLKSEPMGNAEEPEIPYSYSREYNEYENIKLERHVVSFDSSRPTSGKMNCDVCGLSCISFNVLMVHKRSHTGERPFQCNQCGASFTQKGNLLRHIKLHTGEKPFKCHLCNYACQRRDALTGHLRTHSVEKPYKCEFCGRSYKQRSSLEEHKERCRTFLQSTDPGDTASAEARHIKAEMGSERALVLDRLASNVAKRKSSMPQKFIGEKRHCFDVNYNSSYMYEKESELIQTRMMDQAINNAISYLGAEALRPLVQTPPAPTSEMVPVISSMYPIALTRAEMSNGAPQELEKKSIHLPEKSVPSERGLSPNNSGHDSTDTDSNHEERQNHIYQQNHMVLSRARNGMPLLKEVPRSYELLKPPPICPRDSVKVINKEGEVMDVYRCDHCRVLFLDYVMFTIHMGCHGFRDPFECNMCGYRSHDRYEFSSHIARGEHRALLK
UniProt Q9UKS7, whole entry: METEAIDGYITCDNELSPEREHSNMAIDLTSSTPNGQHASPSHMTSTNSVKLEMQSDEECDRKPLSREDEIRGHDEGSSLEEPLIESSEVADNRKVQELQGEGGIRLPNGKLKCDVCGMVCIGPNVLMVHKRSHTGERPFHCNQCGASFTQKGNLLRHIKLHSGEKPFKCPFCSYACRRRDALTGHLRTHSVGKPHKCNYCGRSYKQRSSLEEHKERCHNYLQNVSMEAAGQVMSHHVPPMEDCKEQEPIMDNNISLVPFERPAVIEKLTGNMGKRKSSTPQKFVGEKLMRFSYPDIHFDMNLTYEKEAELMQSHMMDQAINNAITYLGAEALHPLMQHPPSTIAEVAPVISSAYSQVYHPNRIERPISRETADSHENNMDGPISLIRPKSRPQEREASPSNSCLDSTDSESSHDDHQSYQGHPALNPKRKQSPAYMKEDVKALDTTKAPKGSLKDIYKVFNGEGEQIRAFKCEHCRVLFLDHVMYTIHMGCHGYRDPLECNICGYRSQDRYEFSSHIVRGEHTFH
UniProt Q13422, whole entry: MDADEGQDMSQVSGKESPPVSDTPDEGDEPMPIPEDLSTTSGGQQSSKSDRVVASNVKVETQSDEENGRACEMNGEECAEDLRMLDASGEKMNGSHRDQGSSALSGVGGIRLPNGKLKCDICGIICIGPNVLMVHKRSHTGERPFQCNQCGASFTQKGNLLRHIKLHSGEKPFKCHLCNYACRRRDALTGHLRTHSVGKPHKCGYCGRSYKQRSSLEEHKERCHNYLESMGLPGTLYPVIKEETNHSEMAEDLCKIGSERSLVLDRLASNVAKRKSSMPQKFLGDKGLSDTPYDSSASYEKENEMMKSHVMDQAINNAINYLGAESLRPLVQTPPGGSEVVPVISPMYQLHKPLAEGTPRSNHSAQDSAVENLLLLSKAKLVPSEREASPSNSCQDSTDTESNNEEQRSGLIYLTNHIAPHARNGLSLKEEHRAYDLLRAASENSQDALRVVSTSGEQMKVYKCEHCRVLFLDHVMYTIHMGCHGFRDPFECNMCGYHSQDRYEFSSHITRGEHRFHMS
UniProt P48729, whole entry: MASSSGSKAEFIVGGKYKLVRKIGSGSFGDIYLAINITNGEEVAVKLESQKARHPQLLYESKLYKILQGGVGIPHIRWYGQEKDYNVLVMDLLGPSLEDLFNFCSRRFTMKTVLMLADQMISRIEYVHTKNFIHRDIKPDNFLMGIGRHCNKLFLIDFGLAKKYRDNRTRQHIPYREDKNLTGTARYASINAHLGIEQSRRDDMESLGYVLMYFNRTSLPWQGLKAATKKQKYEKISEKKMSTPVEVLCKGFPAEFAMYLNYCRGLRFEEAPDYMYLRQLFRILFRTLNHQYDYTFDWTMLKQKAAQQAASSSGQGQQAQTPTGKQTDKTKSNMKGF
UniProt Q16531, whole entry partner: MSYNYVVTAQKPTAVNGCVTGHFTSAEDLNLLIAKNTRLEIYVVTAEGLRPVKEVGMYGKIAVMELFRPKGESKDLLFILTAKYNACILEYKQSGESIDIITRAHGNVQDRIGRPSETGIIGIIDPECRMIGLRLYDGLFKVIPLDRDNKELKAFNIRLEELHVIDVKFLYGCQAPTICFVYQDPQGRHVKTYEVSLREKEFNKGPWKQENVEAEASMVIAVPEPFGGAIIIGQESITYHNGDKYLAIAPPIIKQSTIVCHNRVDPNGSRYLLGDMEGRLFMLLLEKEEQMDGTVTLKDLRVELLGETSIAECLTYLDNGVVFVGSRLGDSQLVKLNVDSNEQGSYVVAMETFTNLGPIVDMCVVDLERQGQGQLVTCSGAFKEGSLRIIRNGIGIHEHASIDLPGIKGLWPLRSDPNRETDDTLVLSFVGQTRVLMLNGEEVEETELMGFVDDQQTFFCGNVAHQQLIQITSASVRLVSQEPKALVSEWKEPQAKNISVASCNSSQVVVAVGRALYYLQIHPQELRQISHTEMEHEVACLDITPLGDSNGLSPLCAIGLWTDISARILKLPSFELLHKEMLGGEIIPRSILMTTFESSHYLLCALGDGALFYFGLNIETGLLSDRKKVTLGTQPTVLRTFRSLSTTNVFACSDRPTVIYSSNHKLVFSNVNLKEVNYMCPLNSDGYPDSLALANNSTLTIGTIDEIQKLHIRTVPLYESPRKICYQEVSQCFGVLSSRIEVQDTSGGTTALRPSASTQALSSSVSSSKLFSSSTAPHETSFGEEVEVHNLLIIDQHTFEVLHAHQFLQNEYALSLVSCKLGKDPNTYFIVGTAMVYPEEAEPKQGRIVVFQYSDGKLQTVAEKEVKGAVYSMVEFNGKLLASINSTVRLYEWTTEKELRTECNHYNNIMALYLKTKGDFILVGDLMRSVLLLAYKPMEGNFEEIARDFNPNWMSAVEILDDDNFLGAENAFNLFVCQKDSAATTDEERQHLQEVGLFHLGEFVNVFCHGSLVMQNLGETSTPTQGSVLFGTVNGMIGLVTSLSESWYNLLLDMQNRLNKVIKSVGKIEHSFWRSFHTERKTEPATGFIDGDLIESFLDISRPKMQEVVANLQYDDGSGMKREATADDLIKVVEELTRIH

What was measured:
TNF-α = assay: Inflammatory cytokine release from PBMCs induced by PHA (flow cytometry CBA); conditions: PHA 1 µg/mL, 24 h
IL-2 = assay: as above; conditions: PBMCs, PHA 1 µg/mL, 24 h
GSPT1 = GSPT1 (Homo sapiens, UniProt P15170+Q96SW2); assay: Western blot assay of substrate protein degradation in hPBMCs; conditions: 24 hours treatment, compounds at 50 nM and 500 nM (concentration behind the class not stated)
WEE1 = WEE1 (Homo sapiens, UniProt P30291+Q96SW2); assay: as above; conditions: 24 hours treatment, compounds at 50 nM and 500 nM (concentration behind the class not stated)
IKZF3 = IKZF3 (Homo sapiens, UniProt Q96SW2+Q9UKT9); assay: as above; conditions: 24 hours treatment, compounds at 50 nM and 500 nM (concentration behind the class not stated)
IKZF2 = IKZF2 (Homo sapiens, UniProt Q96SW2+Q9UKS7); assay: as above; conditions: 24 hours treatment, compounds at 50 nM and 500 nM (concentration behind the class not stated)
IKZF1 = IKZF1 (Homo sapiens, UniProt Q13422+Q96SW2); assay: as above; conditions: 24 hours treatment, compounds at 50 nM and 500 nM (concentration behind the class not stated)
CK1α = CK1α (Homo sapiens, UniProt P48729+Q96SW2); assay: as above; conditions: 24 hours treatment, compounds at 50 nM and 500 nM (concentration behind the class not stated)
GM-CSF = assay: Inflammatory cytokine release from PBMCs induced by PMA + Ionomycin (flow cytometry CBA); conditions: 24 h
CRBN = CRBN (Homo sapiens, UniProt Q96SW2); assay: CRBN binding affinity by HTRF (CEREBLON BINDING kit); conditions: CRBN binding, HTRF; for Inhibition Rate at 0.5 µM (%): compound at 0.5 µM; for Inhibition Rate at 2 µM (%): compound at 2 µM
[1] = tested on: Human acute T lymphocytic leukemia cell (Molt4); assay: Tumor cell proliferation inhibition (cell viability assay); conditions: Molt4 cells, 96 hours
[2] = tested on: Human colon cancer cell (SW620); assay: as above; conditions: SW620 cells, 96 hours
[3] = tested on: Human multiple myeloma cell (MM.1S); assay: as above; conditions: MM.1S cells, 96 hours
[4] = tested on: Human myeloid monocytic leukemia cell (MV-4-11); assay: as above; conditions: MV-4-11 cells, 96 hours

SMILES: O=C1CCC(N2C(=O)c3ccc(CN4CCC(N5CCN(C(c6ccccc6)c6ccccc6)CC5)C(F)(F)C4)cc3C2=O)C(=O)N1 (stereo not drawn)
- Inhibition Rate (%) TNF-α (TNF-α; 0.1 µM): IV9 (40% < IV9 ≤ 50%)
- Inhibition Rate (%) TNF-α (TNF-α; 1 µM): IV9 (40% < IV9 ≤ 50%)
- Inhibition Rate (%) IL-2 (IL-2; 0.1 µM): IV10 (50% < IV 10 ≤ 60%)
- Inhibition Rate (%) IL-2 (IL-2; 1 µM): IV1 0
- substrate protein remaining % (GSPT1) (GSPT1): A (0% ≤ substrate protein remaining % ≤ 80%)
- substrate protein remaining % (WEE1) (WEE1): B (80%< substrate protein remaining %≤ 100%)
- substrate protein remaining % (IKZF3) (IKZF3): A (0% ≤ substrate protein remaining % ≤ 80%)
- substrate protein remaining % (IKZF2) (IKZF2): A (0% ≤ substrate protein remaining % ≤ 80%)
- substrate protein remaining % (IKZF 1) (IKZF1): B (80%< substrate protein remaining %≤ 100%)
- substrate protein remaining % (CK1a) (CK1α): A (0% ≤ substrate protein remaining % ≤ 80%)
- Inhibition Rate (%) GM-CSF (GM-CSF; 0.1 µM): IV9 (40% < IV9 ≤ 50%)
- Inhibition Rate (%) GM-CSF (GM-CSF; 1 µM): IV7 (20% < IV7 ≤ 30%)

SMILES: O=C1CCC(N2Cc3cc(CCN4CCC(N5CCN(c6cccc(Cl)c6Cl)CC5)C(F)(F)C4)ccc3C2=O)C(=O)N1 (stereo not drawn)
- Inhibition Rate (%) TNF-α (TNF-α; 0.1 µM): IV8 (30% < IV8 ≤ 40%)
- Inhibition Rate (%) TNF-α (TNF-α; 1 µM): IV9 (40% < IV9 ≤ 50%)
- Inhibition Rate (%) IL-2 (IL-2; 0.1 µM): IV9 (40% < IV9 ≤ 50%)
- Inhibition Rate (%) IL-2 (IL-2; 1 µM): IV1 1
- substrate protein remaining % (GSPT1) (GSPT1): A (0% ≤ substrate protein remaining % ≤ 80%)
- substrate protein remaining % (WEE1) (WEE1): A (0% ≤ substrate protein remaining % ≤ 80%)
- substrate protein remaining % (IKZF3) (IKZF3): B (80%< substrate protein remaining %≤ 100%)
- substrate protein remaining % (IKZF2) (IKZF2): B (80%< substrate protein remaining %≤ 100%)
- substrate protein remaining % (IKZF 1) (IKZF1): A (0% ≤ substrate protein remaining % ≤ 80%)
- substrate protein remaining % (CK1a) (CK1α): A (0% ≤ substrate protein remaining % ≤ 80%)
- Inhibition Rate at 0.5 µM (%) (CRBN): a4 (40% < a4 ≤ 53%)
- Inhibition Rate at 2 µM (%) (CRBN): a5 (53% < a5 ≤ 60%)
- Inhibition Rate (%) GM-CSF (GM-CSF; 0.1 µM): IV10 (50% < IV 10 ≤ 60%)
- Inhibition Rate (%) GM-CSF (GM-CSF; 1 µM): IV1 0

SMILES: CC1(C)CCC(CN2CCN(C3CCN(Cc4cccc5c4CN(C4CCC(=O)NC4=O)C5=O)CC3(F)F)CC2)=C(c2ccc(Cl)cc2)C1 (stereo not drawn)
- substrate protein remaining % (GSPT1) (GSPT1): A (0% ≤ substrate protein remaining % ≤ 80%)
- substrate protein remaining % (WEE1) (WEE1): B (80%< substrate protein remaining %≤ 100%)
- substrate protein remaining % (IKZF3) (IKZF3): B (80%< substrate protein remaining %≤ 100%)
- substrate protein remaining % (IKZF2) (IKZF2): B (80%< substrate protein remaining %≤ 100%)
- substrate protein remaining % (IKZF 1) (IKZF1): B (80%< substrate protein remaining %≤ 100%)
- substrate protein remaining % (CK1a) (CK1α): A (0% ≤ substrate protein remaining % ≤ 80%)
- Inhibition Rate (%) GM-CSF (GM-CSF; 0.1 µM): IV9 (40% < IV9 ≤ 50%)
- Inhibition Rate (%) GM-CSF (GM-CSF; 1 µM): IV9 (40% < IV9 ≤ 50%)

SMILES: CC1(C)CCC(C(=O)N2CCN(C3CCN(Cc4cccc5c4C(=O)N(C4CCC(=O)NC4=O)C5)CC3(F)F)CC2)=C(c2ccc(Cl)cc2)C1 (stereo not drawn)
- Inhibition Rate (%) IL-2 (IL-2; 0.1 µM): IV9 (40% < IV9 ≤ 50%)
- Inhibition Rate (%) IL-2 (IL-2; 1 µM): IV9 (40% < IV9 ≤ 50%)
- substrate protein remaining % (GSPT1) (GSPT1): A (0% ≤ substrate protein remaining % ≤ 80%)
- substrate protein remaining % (WEE1) (WEE1): B (80%< substrate protein remaining %≤ 100%)
- substrate protein remaining % (IKZF3) (IKZF3): B (80%< substrate protein remaining %≤ 100%)
- substrate protein remaining % (IKZF2) (IKZF2): B (80%< substrate protein remaining %≤ 100%)
- substrate protein remaining % (IKZF 1) (IKZF1): B (80%< substrate protein remaining %≤ 100%)
- substrate protein remaining % (CK1a) (CK1α): B (80%< substrate protein remaining %≤ 100%)
- Inhibition Rate at 0.5 µM (%) (CRBN): a3 (30% < a3 ≤ 40%)
- Inhibition Rate at 2 µM (%) (CRBN): a8 (80% < a8 ≤100%)
- Inhibition Rate (%) GM-CSF (GM-CSF; 0.1 µM): IV9 (40% < IV9 ≤ 50%)
- Inhibition Rate (%) GM-CSF (GM-CSF; 1 µM): IV9 (40% < IV9 ≤ 50%)

SMILES: O=C1CCC(N2Cc3ccc(CN4CCC(N5CCN(c6cccc(Cl)c6Cl)CC5)C(F)(F)C4)cc3C2=O)C(=O)N1 (stereo not drawn)
- Inhibition Rate (%) IL-2 (IL-2; 0.1 µM): IV9 (40% < IV9 ≤ 50%)
- Inhibition Rate (%) IL-2 (IL-2; 1 µM): IV9 (40% < IV9 ≤ 50%)
- Inhibition Rate (%) GM-CSF (GM-CSF; 0.1 µM): IV9 (40% < IV9 ≤ 50%)
- Inhibition Rate (%) GM-CSF (GM-CSF; 1 µM): IV9 (40% < IV9 ≤ 50%)

SMILES: CC1(C)CCC(C(=O)N2CCN(C3CCN(CCc4ccc5c(c4)CN(C4CCC(=O)NC4=O)C5=O)CC3(F)F)CC2)=C(c2ccc(Cl)cc2)C1 (stereo not drawn)
- substrate protein remaining % (GSPT1) (GSPT1): A (0% ≤ substrate protein remaining % ≤ 80%)
- substrate protein remaining % (WEE1) (WEE1): A (0% ≤ substrate protein remaining % ≤ 80%)
- substrate protein remaining % (IKZF3) (IKZF3): B (80%< substrate protein remaining %≤ 100%)
- substrate protein remaining % (IKZF2) (IKZF2): B (80%< substrate protein remaining %≤ 100%)
- substrate protein remaining % (IKZF 1) (IKZF1): B (80%< substrate protein remaining %≤ 100%)
- substrate protein remaining % (CK1a) (CK1α): A (0% ≤ substrate protein remaining % ≤ 80%)
- Inhibition Rate at 0.5 µM (%) (CRBN): a6 (60% < a6 ≤ 70%)
- Inhibition Rate at 2 µM (%) (CRBN): a8 (80% < a8 ≤100%)
- Inhibition Rate (%) GM-CSF (GM-CSF; 0.1 µM): IV9 (40% < IV9 ≤ 50%)
- Inhibition Rate (%) GM-CSF (GM-CSF; 1 µM): IV9 (40% < IV9 ≤ 50%)

SMILES: CC1(C)CCC(CN2CCN(C3CCN(Cc4cc(F)c5c(c4)CN(C4CCC(=O)NC4=O)C5=O)CC3(F)F)CC2)=C(c2ccc(Cl)cc2)C1 (stereo not drawn)
- substrate protein remaining % (GSPT1) (GSPT1): A (0% ≤ substrate protein remaining % ≤ 80%)
- substrate protein remaining % (WEE1) (WEE1): B (80%< substrate protein remaining %≤ 100%)
- substrate protein remaining % (IKZF3) (IKZF3): B (80%< substrate protein remaining %≤ 100%)
- substrate protein remaining % (IKZF2) (IKZF2): B (80%< substrate protein remaining %≤ 100%)
- substrate protein remaining % (IKZF 1) (IKZF1): B (80%< substrate protein remaining %≤ 100%)
- substrate protein remaining % (CK1a) (CK1α): B (80%< substrate protein remaining %≤ 100%)
- Inhibition Rate at 0.5 µM (%) (CRBN): a4 (40% < a4 ≤ 53%)
- Inhibition Rate at 2 µM (%) (CRBN): a7 (70% < a7 ≤80%)
- Inhibition Rate (%) GM-CSF (GM-CSF; 0.1 µM): IV9 (40% < IV9 ≤ 50%)
- Inhibition Rate (%) GM-CSF (GM-CSF; 1 µM): IV9 (40% < IV9 ≤ 50%)

SMILES: O=C1CCC(N2Cc3c(C(=O)N4CCC(N5CC=C(c6cccc(Cl)c6Cl)CC5)C(F)(F)C4)cccc3C2=O)C(=O)N1 (stereo not drawn)
- substrate protein remaining % (GSPT1) (GSPT1): A (0% ≤ substrate protein remaining % ≤ 80%)
- substrate protein remaining % (WEE1) (WEE1): A (0% ≤ substrate protein remaining % ≤ 80%)
- substrate protein remaining % (IKZF3) (IKZF3): A (0% ≤ substrate protein remaining % ≤ 80%)
- substrate protein remaining % (IKZF2) (IKZF2): A (0% ≤ substrate protein remaining % ≤ 80%)
- substrate protein remaining % (IKZF 1) (IKZF1): A (0% ≤ substrate protein remaining % ≤ 80%)
- substrate protein remaining % (CK1a) (CK1α): A (0% ≤ substrate protein remaining % ≤ 80%)
- Inhibition Rate at 0.5 µM (%) (CRBN): a3 (30% < a3 ≤ 40%)
- Inhibition Rate at 2 µM (%) (CRBN): a7 (70% < a7 ≤80%)
- Inhibition Rate at 10 nM (%) ([1]; 10 nM): 1c4 (10% ≤ 1c4 < 20%)
- Inhibition Rate at 500 nM (%) ([1]; 500 nM): 1c11 (80% ≤ 1c11 ≤ 100%)
- Inhibition Rate at 10 nM (%) ([2]; 10 nM): 1d1 (0 < 1d1 < 5%)
- Inhibition Rate at 500 nM (%) ([2]; 500 nM): 1d6 (40% ≤ 1d6 < 50%)
- Inhibition Rate at 10 nM (%) ([3]; 10 nM): 1b4 (20% ≤ 1b4 < 32%)
- Inhibition Rate at 500 nM (%) ([3]; 500 nM): 1b9 (70% ≤ 1b9 < 80%)
- Inhibition Rate at 10 nM (%) ([4]; 10 nM): 1a3 (10% ≤ 1a3 < 20%)
- Inhibition Rate at 500 nM (%) ([4]; 500 nM): 1a10 (80% ≤ 1a10 < 100%)

SMILES: O=C1CCC(N2C(=O)c3ccc(CN4CCC(N5CCN(C(c6ccccc6)c6ccccn6)CC5)C(F)(F)C4)cc3C2=O)C(=O)N1 (stereo not drawn)
- Inhibition Rate (%) IL-2 (IL-2; 0.1 µM): IV8 (30% < IV8 ≤ 40%)
- Inhibition Rate (%) IL-2 (IL-2; 1 µM): IV9 (40% < IV9 ≤ 50%)
- substrate protein remaining % (GSPT1) (GSPT1): A (0% ≤ substrate protein remaining % ≤ 80%)
- substrate protein remaining % (WEE1) (WEE1): B (80%< substrate protein remaining %≤ 100%)
- substrate protein remaining % (IKZF3) (IKZF3): B (80%< substrate protein remaining %≤ 100%)
- substrate protein remaining % (IKZF2) (IKZF2): B (80%< substrate protein remaining %≤ 100%)
- substrate protein remaining % (IKZF 1) (IKZF1): B (80%< substrate protein remaining %≤ 100%)
- substrate protein remaining % (CK1a) (CK1α): B (80%< substrate protein remaining %≤ 100%)
- Inhibition Rate (%) GM-CSF (GM-CSF; 0.1 µM): IV8 (30% < IV8 ≤ 40%)
- Inhibition Rate (%) GM-CSF (GM-CSF; 1 µM): IV9 (40% < IV9 ≤ 50%)
